Laboratory results: ChEMBL document CHEMBL1122477, “Neuroleptic activity and dopamine-uptake inhibition in 1-piperazino-3-phenylindans” (J Med Chem, 1983)

By UniProt entry, the sequences of proteins in these tests, tags left out.
UniProt P31652, whole entry: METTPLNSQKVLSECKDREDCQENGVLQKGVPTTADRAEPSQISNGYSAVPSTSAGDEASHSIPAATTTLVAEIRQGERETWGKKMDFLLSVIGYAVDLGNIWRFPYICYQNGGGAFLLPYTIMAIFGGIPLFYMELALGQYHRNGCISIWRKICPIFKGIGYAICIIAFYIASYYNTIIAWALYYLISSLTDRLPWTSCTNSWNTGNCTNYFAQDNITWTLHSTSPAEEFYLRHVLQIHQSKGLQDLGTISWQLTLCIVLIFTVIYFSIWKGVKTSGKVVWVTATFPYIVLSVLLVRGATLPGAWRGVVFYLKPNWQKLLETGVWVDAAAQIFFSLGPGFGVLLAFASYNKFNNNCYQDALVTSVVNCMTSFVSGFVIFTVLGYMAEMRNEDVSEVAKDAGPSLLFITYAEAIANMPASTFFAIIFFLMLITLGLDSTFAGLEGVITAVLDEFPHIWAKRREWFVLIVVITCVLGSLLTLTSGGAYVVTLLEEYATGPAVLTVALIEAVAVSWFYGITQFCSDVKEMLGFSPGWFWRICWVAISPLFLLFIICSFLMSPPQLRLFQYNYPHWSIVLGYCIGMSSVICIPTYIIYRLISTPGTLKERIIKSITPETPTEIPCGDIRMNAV

Biological target: Sodium-dependent serotonin transporter (Rattus norvegicus, UniProt P31652)
Experiment: Effect on synaptosomal uptake inhibition of 5-hydroxytryptamine (5-HT)
Type: functional

CN1Cc2c(N)cccc2C(c2ccccc2)C1 (stereo unspecified) [NOMIFENSINE]
IC50: 830 nM
